Measurements as given in PMC4523496 (Molecular psychiatry, 2015).

Test system: IL-1β mRNA in VTA, NAc, vmPFC
Experiment: IL-1β mRNA in brain micro-punches after systemic drug
Type: in vivo, rat

COC(=O)[C@H]1[C@@H](OC(=O)c2ccccc2)C[C@@H]2CC[C@H]1N2C [Cocaine]
IL-1β mRNA levels in vmPFC and NAc (30 min and 2 h after cocaine 10 mg/kg): unaltered at both time points
IL-1β mRNA in the VTA (2 hr after cocaine 10 mg/kg): reliably increased
